These results are taken from patent US20240024346A1, “CD73 INHIBITORS AND PHARMACEUTICAL USES THEREOF” (RISEN (SUZHOU) PHARMA TECH CO., LTD., priority 2020, published 2024).

SMILES strings stand for the structures.

The assay deals with human T cell. Put plainly: CD73 cellular assay (T cell stimulation assay: CellTiter-Glo proliferation and IFN-γ ELISA). The format is cell-based. Particulars: human T cells, anti-CD3/CD28, AMP + EHNA, 72 hours; read-out: EC50 IFN-γ (ELISA, indicator for T-cell activity). Here is the method:
Day 2, human T cell seeding: (a) washing the coated plate (from Day 1) with sterilized PBS buffer (2×100 uL); (b) re-suspending T cells and adjusting cell density to 0.5×10^6 cells/mL with growth media (X-VIVO 15+1% Pen/strep+1% glutamine), and seeding 100 μL/well (50,000 cells/well) in 96-well plates; (c) diluting CD28 antibody for 8× working concentration (8 μg/mL) with growth media, giving 1 μg/mL of the final concentration, followed by addition of CD28 antibody (25 μL) to cell plate; incubating the plates under 5% CO2 at 37° C. for 60 min; (d) adding compound (25 μL, 8×dilution with growth media) to cell plate, and incubating the plates under 5% CO2 at 37° C. for 60 min; (e) adding AMP (25 μL) and EHNA (25 μL, 8×dilution with growth media) to cell plate; (f) incubating the plates under 5% CO2 at 37° C. for 72 hours. […]

As for `C[C@H](Nc1cc(Cl)nc2c1cnn2[C@@H]1O[C@H](COP(=O)(O)CP(=O)(O)O)[C@@H](O)[C@H]1O)c1ccccc1F` [Compound a, AB680, reference compound], the EC50 was determined as 34.9 nM.
